The values below are quoted from earlier work in patent publication US8815249B2 (priority 1999, dated 2014).

The conditions of the series: mouse, in vivo; cited from earlier work.

In the case of HCLGKWLGHPDKFVGI [PL139-154], the “mice with severe clinical and histological EAE” value was 3 of 20.
